Laboratory results from patent publication US20250223317A1, “KEAP1 INHIBITING PROTEIN-LIKE POLYMERS” (NORTHWESTERN UNIVERSITY, priority 2022, published 2025).

The chains behind the UniProt entries cited, without tags or fusion partners. Residues count along the entry.
UniProt Q14145, whole entry: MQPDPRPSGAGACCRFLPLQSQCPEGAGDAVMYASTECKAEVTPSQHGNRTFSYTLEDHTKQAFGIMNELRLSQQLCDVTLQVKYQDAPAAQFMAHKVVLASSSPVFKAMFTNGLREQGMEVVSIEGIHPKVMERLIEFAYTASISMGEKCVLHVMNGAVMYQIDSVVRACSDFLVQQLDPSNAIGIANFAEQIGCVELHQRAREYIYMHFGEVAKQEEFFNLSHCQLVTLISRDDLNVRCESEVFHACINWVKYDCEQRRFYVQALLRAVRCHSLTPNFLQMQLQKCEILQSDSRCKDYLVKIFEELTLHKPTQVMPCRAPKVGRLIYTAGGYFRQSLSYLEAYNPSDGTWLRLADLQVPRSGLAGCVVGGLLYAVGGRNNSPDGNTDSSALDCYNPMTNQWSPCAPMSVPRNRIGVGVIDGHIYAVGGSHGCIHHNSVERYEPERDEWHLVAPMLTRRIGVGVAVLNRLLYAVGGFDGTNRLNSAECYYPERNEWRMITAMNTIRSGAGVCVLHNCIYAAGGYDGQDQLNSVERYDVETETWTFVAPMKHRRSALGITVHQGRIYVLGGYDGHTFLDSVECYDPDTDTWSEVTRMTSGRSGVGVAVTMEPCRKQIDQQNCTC
UniProt Q14145, 321-609 limits assumed: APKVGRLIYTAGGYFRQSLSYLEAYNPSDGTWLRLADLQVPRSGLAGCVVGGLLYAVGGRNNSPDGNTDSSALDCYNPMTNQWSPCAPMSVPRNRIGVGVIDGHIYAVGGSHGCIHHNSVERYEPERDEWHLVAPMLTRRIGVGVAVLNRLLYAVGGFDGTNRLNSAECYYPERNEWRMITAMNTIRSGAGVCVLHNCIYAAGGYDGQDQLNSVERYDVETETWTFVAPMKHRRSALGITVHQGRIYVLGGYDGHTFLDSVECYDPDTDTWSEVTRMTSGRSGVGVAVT

B1: polynorbornene dicarboxyimide-based brush block copolymer of SEQ ID NO: 2 (DLG) and SEQ ID NO: 150 (ETGE), DLG:ETGE ratio 8:8 (peptide)
peptide 1: RQDIDLGVSRR
peptide 2: LDPETGEFLRRRR
modifications: N-terminus amide-coupled to N-(hexanoic acid)-cis-5-norbornene-exo-dicarboximide, which is polymerised into the backbone (block B); N-terminus amide-coupled to N-(hexanoic acid)-cis-5-norbornene-exo-dicarboximide, which is polymerised into the backbone (block A)

Assays:
[1] = biological target: T1, human recombinant Keap1 (Homo sapiens, UniProt Q14145); test: Fluorescence polarization Keap1 binding assay (percent FAM-Nrf2 binding); settings: Example 14
T1 construct: purchased BPS bioscience, San Diego, CA
Experimental: The polynorbornene dicarboxyimide-based brush homopolymers were assessed for Keap1/Nrf2 disruption using a competitive inhibition screening assay that uses labeled Nrf2 peptide (FAM-[…]) and human recombinant Keap1 (BPS bioscience, San Diego, CA). The assay was carried out according to established protocols. Briefly, test inhibitors (n=3) were added at varying concentrations to wells of a black 96-well plate along with assay buffer, BSA, FAM-Nrf2, and Keap1 and allowed to incubate for 30 minutes at room temperature. […] Blank control was assay buffer and inhibitor vehicle. Nrf2 negative binding control included assay buffer, BSA, FAM-Nrf2, and inhibitor vehicle. Nrf2 positive binding control included assay buffer, BSA, FAM-Nrf2, inhibitor vehicle and Keap1. Data was assessed for IC50 values by quantifying percent Nrf2 activity relative to inhibitor concentration by fitting to a nonlinear model for a dose response (absolute IC50) using Prism 9. […]
The polynorbornene dicarboxyimide-based brush homopolymer and copolymers were assessed for Keap1/Nrf2 disruption using a competitive inhibition screening assay that uses labeled Nrf2 peptide (FAM-[…]) and human recombinant Keap1 (BPS bioscience, San Diego, CA). […] Data was assessed for IC50 values by quantifying percent Nrf2 activity relative to inhibitor concentration by fitting to a nonlinear model for a dose response (absolute IC50) using Prism 9.

[2] = tested on: Antioxidant Response Element (ARE); test: ARE luciferase reporter assay (ARE activation); type: cell-based; settings: 0 μM to 10 μM, 24 hours post-treatment
[3] = biological target: Kelch domain labeled with biotin (bound to streptavidin-europium energy donor) (UniProt Q14145); test: TR-FRET competition with AF647-… on biotin-labeled Kelch domain

Row | Molecule | competition with the labeled Nrf2 peptide (FAM-LDEETGEFL) at concentrations less than 100 nM [1] | ARE activation (relative luminescence) [2] | IC50 [3]
1 | DLG Homopolymer (RQDIDLGVSRR) | does not out compete | does not activate alone | –
2 | B1 | – | – | 388 µM
